This assay has as its target T1, soluble epoxide hydrolase (sEH) (Oryctolagus cuniculus, UniProt A0A5F9CRP6).
T1 construct: gene ADAM2
The assay is described as follows: biochemical.

Sequences of proteins named here, by UniProt entry; tags and fusion partners are left off. Residues count along the entry.
UniProt A0A5F9CRP6, 1-555: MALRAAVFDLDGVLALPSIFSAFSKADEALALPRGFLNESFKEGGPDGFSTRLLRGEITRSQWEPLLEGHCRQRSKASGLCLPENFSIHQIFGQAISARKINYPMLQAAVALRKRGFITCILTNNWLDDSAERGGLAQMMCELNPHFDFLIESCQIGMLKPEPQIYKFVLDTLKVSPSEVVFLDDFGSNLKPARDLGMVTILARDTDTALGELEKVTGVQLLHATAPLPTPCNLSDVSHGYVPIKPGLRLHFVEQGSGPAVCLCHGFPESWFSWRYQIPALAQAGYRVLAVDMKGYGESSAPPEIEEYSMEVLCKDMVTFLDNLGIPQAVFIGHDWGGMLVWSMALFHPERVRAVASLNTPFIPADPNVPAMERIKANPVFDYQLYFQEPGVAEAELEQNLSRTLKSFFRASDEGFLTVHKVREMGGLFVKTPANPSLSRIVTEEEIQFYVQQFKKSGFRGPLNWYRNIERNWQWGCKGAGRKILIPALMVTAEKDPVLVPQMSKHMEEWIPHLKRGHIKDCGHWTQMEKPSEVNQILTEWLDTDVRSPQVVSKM

pIC50: −log10 of the molar value.

By pIC50 is commonly meant the negative decadic logarithm of the IC50, by convention in mol/L. A lower pIC50 goes with a high IC50.

For the compound `O=C(Nc1ccc(OC(F)(F)F)cc1)N[C@H]1CC[C@H](Oc2ccc(C(=O)O)cc2)CC1` [UC1728, trans-4-{4-[3-(4-Trifluoromethoxy-phenyl)-ureido]-cyclohexyloxy}-benzoic acid], the negative-log IC50 (pIC50) is 8.70.

Values taken from paper PMC5218821, “Effect of a Soluble Epoxide Hydrolase Inhibitor, UC1728, on LPS-Induced Uveitis in the Rabbit” (Journal of ocular biology, 2016).
